These are literature values, as cited in article PMC9655119, “Sustained Activation of CLR/RAMP Receptors by Gel-Forming Agonists” (International Journal of Molecular Sciences, 2022).

Where two headings read alike, the source gives them in different places.

The conditions of this data set: cited from earlier work. An excerpt:
Because the rate of dissociation of hydrogels depends on electrostatic interactions among the monomeric peptide, solvent, and solutes, the release of Analog C-6 from the gel solution is likely affected by various environmental factors. Therefore, it is important to characterize the release kinetics of the analog gel in vivo before we can reasonably design studies to investigate its efficacy in animals. […] In the th ...

Turning to adrenomedullin [ADM], the half-life is recorded as ~ 20 min. Also, the half-life (stated as known, no reference given) is 20 to 30 min.
